AlphaSeq binding of Ab-14 light chain variants to a spike HR2 peptide

The target is the same throughout: PDVDLGDISGINAS, from the HR2 region of SARS-CoV-2 spike.

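The starting antibody came from a phage panning campaign against this peptide. Designed CDR sequences, proposed from the first random library and measured here. Their group label is 14L_En_Gibbs (En: ensemble of fine-tuned language models; Gibbs: Gibbs sampling). Affinity was read by AlphaSeq, a pooled yeast mating assay with surface-displayed partners. Mating (16 h, 30 °C) was followed by selection of diploids and sequencing of their barcodes. Scores were corrected for input abundance and mapped to Kd with protein pairs of known affinity run in the same pool. Each pool was mated in six replicate cultures.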

Parent scFv Ab-14: VH joined to VL by three GGGGS repeats. Changes lie in the light chain CDRs alone.
VH: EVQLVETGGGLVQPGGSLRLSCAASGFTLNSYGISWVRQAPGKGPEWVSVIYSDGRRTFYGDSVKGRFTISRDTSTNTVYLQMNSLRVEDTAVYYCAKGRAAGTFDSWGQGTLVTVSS
VL: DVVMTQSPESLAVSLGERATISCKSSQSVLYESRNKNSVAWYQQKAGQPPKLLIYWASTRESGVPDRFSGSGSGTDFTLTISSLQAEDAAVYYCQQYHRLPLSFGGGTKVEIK

Variants are written as CDR1, CDR2 and CDR3 of the light chain (limits as in the source). Parent: KSSQSVLYESRNKNSVA, WASTRES, QQYHRLPLS.
Affinities are written as log10 Kd with Kd in nM; a lower number is a better binder.
A mean of the replicates is given; it leaves out those without a signal.
An entry "ND" has no value in the source: the pair was not observed among the diploids in that replicate. This suggests poor binding but is not conclusive.
A sequence measured in both rounds can read differently, since the two assays cover different ranges.

CDR-L1 | CDR-L2 | CDR-L3 | log10 Kd, replicates | mean, log10 nM | signal with controls
SVFMELAEEKNSYRNIA | DASMRLA | QQYVRLPLG | 0.37 0.36 0.14 0.23 0.37 0.42 | 0.32 | 2/18 (3.97)
QISLNGWDGEKKEYAVA | EGTKKDA | QQYSRLPLS | 0.65 0.75 0.55 0.58 0.31 0.86 | 0.62 | 0/18
RIQDHMAVGEMSHSSIA | EEATVMD | QQYSRLPLA | 0.44 0.10 0.43 0.51 0.26 0.83 | 0.43 | 0/18
QFHQGMIGDQRNMHSIA | NAQAAVP | QYYFRLPLS | 0.77 1.31 2.12 0.98 1.56 0.66 | 1.23 | 0/18
MITAVMYAYNGSFSSIA | DKTISVN | QQYHRLPLS | 0.95 0.24 1.33 0.10 1.23 0.84 | 0.78 | 0/18
KLAMYLEMNARTNHHIA | EANLKPS | QQYNRLPFS | 1.06 0.62 1.01 0.52 1.03 0.96 | 0.87 | 0/18
SLKYQQDGNGLQRQAVA | GVGLKEE | QQYGRLPLT | 0.83 0.15 0.58 1.12 0.36 0.45 | 0.58 | 0/18
KMSVHLYDAKNRDMSIA | DEELHTV | QQYNRLPFS | 2.35 1.80 1.50 2.66 2.40 ND | 2.14 | 2/18 (1.74)
HINTALKTVDDHYSNVA | EQRLTSE | QQYFRLPLS | 0.06 -0.13 0.47 0.56 0.63 0.48 | 0.35 | 0/18
QIQFFIENDAEWGDSIA | EVSATTA | QQYHRLPLA | ND ND ND ND ND ND | ND | 0/18
YISMRLDMSDDIQYAVA | DANIATA | QDYFRLPLA | ND ND 2.62 3.28 ND ND | 2.95 | 0/18
NITGMVEEKGTTTKNIA | EGEFRCG | QQYSRLPLS | 0.52 1.03 0.36 1.00 0.82 1.00 | 0.79 | 0/18
NLSMHLLDATVKDMSIA | DAELSTM | QQYMRLPLS | 0.86 0.97 0.61 0.48 1.07 0.72 | 0.79 | 0/18
TLMHHQDYQGEIKKSIA | NAIIKEE | QQYSRLPLA | 0.91 0.66 0.64 0.46 0.73 0.80 | 0.70 | 0/18
KITLPTGMWLNKANSIA | DASSSME | QQYYWLPLT | 1.23 0.69 ND 2.01 1.68 1.39 | 1.40 | 0/18
KIQHQHVGNWKTMDNIA | QGDQRCQ | QSYDRLPLS | 2.32 1.66 2.88 2.21 1.54 2.69 | 2.22 | 0/18
MVNTNLVHQANRDNNIA | EADMVAA | QDYDRLPLI | 1.66 2.51 1.22 ND 3.32 1.80 | 2.10 | 2/18 (2.03)
KINGVLINFGEDMNAIA | QENLSNL | QQYFHLPLS | ND ND ND ND ND ND | ND | 0/18
NISYLQGLSTNSVNNVA | QASVRAP | QYYQRLPLC | 0.14 -0.04 -0.07 -0.23 -0.31 0.05 | -0.08 | 2/18 (3.02)
MISLCQNGYYDANNSIA | DRNERAM | QQYGRLPLV | 1.06 1.22 1.07 1.33 0.84 1.49 | 1.17 | 2/18 (2.45)
KLAMYLEMNARTIHAIA | EANLKTS | QQYNRLPIS | ND ND ND ND ND ND | ND | 0/18
KLKLSNSVSLRGTRAIA | DGSTRAH | QQYHRLPLT | 0.85 0.11 0.16 -0.02 0.17 0.22 | 0.25 | 1/18 (3.17)
HFAHPWQSGYESKQNVA | NGSTVMT | QHYNRLPLS | 0.83 0.99 0.66 0.59 1.33 0.71 | 0.85 | 2/18 (2.16)
SVTRYTDENGLKMSSIA | GAGNRMT | QQYHRLPLT | 1.58 1.67 ND ND ND ND | 1.62 | 0/18
HVAGMMHQMGTQHQNIA | DMAIKCD | QQYQRLPLH | 0.28 0.17 0.19 0.09 0.18 0.33 | 0.21 | 1/18 (2.94)
ALTAHHQGAIEAKNSIA | NAVMLYQ | QQYAQLPLM | ND ND ND ND ND ND | ND | 0/18
MIAMEIGIEDSKWQAVA | SNSVRAS | QQYGRLPFS | 2.18 1.40 2.10 1.85 1.64 2.41 | 1.93 | 0/18
RLMGLDVTEKNDQSAIA | NAQTHLT | QQYERLPLI | 1.08 0.55 0.47 0.33 0.58 0.48 | 0.58 | 0/18
ALSFEMESPHNHSNNVA | SASKLCM | QQYFTLPLS | 1.82 1.36 1.42 1.82 1.53 1.79 | 1.62 | 3/18 (3.20)
NLGYQQDGNGLQRQAVA | GVTMKEY | QYYGRLPLM | 2.62 1.86 1.64 2.00 1.24 2.50 | 1.98 | 1/18 (2.56)
QISLNGWDGTKKEYAVA | EGTKKDA | QQYSRLPLS | 0.62 0.58 0.58 0.85 0.46 0.78 | 0.64 | 1/18 (3.83)
SLTKLETTGQKKSENIA | DNSMRYE | QQYSHLPLK | 0.23 0.11 0.09 0.12 0.10 0.51 | 0.20 | 1/18 (2.52)
KLQSEALGGNQSTSSVA | GNSVAMP | QQYERLPLD | ND ND ND 3.08 3.02 ND | 3.05 | 0/18
QVSITNNQGHAMEHNIA | EGTYAEE | QQYARLPLQ | 0.80 0.84 0.59 0.92 0.80 0.68 | 0.77 | 0/18
KIQKYTYNEFLDRNHIA | EESTKVT | QQYFMLPLT | 1.20 ND ND 1.17 2.10 2.23 | 1.68 | 0/18
KLQNQMGTMGKQNQAIA | QGAITRV | QQYQHLPLW | ND 1.91 1.95 ND ND 1.07 | 1.64 | 0/18

For reference, 2 entries of the list once more:

CDR-L1	CDR-L2	CDR-L3	log10 Kd, replicates	mean, log10 nM	signal with controls
KLQNQMGTMGKQNQAIA	QGAITRV	QQYQHLPLW	ND 1.91 1.95 ND ND 1.07	1.64	0/18
RLMGLDVTEKNDQSAIA	NAQTHLT	QQYERLPLI	1.08 0.55 0.47 0.33 0.58 0.48	0.58	0/18

The parent sequence was in this pool as ten entries: three were never detected, three once, and four in most replicates, with averages from 0.34 to 2.37.
Three control strains display no target. For all light chain designs, 4% of the pairings with them gave a signal, with a median of 2.64 and one signal in twenty below 1.59, so weak values seen in few replicates may be background. Also given: how often the same scFv was detected with the empty control strains, with their mean in brackets.
The authors' rule: three or more of the six replicates give a measured affinity, fewer mean a poor binder.

Reference: Li et al. 2023, doi:10.1038/s41467-023-39022-2. File: FLAb, binding data.